Laboratory results as given in patent US6638943B2 (The University of Tennessee Research Foundation, priority 2001, dated 2003).
Like-named read-outs stand apart in the source and are kept apart here.

The chains behind the UniProt entries cited, without tags or fusion partners.
UniProt P08913, whole entry: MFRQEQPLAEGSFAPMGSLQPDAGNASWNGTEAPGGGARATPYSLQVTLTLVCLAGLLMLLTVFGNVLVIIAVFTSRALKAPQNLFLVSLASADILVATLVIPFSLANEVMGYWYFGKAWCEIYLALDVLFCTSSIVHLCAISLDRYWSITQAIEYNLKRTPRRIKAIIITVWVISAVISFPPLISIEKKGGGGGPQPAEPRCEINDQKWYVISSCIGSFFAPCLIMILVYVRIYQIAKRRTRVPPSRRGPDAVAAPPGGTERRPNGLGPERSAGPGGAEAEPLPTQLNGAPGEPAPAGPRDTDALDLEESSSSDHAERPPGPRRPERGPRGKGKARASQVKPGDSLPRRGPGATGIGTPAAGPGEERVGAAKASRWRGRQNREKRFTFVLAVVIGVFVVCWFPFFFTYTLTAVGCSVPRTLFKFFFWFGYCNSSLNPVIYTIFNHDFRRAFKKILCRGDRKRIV
UniProt P18825, whole entry: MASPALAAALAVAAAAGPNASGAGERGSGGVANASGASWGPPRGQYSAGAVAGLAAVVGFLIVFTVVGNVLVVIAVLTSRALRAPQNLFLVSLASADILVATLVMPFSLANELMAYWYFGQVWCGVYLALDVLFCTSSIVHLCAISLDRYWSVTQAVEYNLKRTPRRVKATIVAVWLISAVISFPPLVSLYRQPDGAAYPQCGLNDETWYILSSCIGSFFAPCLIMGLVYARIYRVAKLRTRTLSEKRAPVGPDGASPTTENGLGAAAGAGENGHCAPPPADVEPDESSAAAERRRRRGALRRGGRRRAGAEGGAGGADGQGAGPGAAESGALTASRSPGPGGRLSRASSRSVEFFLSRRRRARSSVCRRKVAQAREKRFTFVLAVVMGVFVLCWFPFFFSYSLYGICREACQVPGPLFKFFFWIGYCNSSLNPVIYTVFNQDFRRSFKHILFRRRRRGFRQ
UniProt P18089, whole entry: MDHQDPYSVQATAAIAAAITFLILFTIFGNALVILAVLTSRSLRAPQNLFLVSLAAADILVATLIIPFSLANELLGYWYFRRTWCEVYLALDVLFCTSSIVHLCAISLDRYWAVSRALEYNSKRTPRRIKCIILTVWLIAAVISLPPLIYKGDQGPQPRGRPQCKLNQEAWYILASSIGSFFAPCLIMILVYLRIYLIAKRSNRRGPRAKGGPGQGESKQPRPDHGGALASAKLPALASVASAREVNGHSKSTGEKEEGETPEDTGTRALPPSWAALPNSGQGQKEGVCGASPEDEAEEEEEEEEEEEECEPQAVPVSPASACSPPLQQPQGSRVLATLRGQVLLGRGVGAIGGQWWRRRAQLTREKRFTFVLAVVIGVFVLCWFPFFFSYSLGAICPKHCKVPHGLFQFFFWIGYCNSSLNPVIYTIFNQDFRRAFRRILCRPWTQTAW

Legend:
human α2a-AR = target: T1, human α2a-AR (Homo sapiens, UniProt P08913); assay: [3H]Rauwolscine equilibrium competition binding, human α2a-AR expressed in CHO cells; settings: Table 1, ratio of Ki values
T1 construct: expressed in transfected cells

human α2c-AR = target: T2, human α2c-AR (Homo sapiens, UniProt P18825); assay: [3H]Rauwolscine equilibrium competition binding, human α2c-AR expressed in CHO cells; settings: summary of Table 2
T2 construct: expressed in transfected cells

human α2b-AR = target: T3, human α2b-AR (Homo sapiens, UniProt P18089); assay: [3H]Rauwolscine equilibrium competition binding, human α2b-AR expressed in CHO cells
T3 construct: expressed in transfected cells

[1] = human α2b-AR in CHO cells, [3H]rauwolscine 2.54 nM, mean ± SEM of four to nine experiments, read-out: Ki = SEM (nM) α2b-AR
[2] = read-out: pKi α2b-AR (converted)

Structure (SMILES)	α2a/α2b Selectivity = Ki(α2b)/Ki(α2a) (human α2a-AR)	selectivity for the human α2c-AR subtype (in words) (human α2c-AR)	Ki (human α2b-AR; [1]) [nM]	Ki (human α2b-AR; [2]) [nM]
O=C(NCCNC(=O)[C@@H]1[C@H]2C[C@H]3c4[nH]c5ccccc5c4CCN3C[C@@H]2CC[C@@H]1O)[C@@H]1[C@H]2C[C@H]3c4[nH]c5ccccc5c4CCN3C[C@@H]2CC[C@@H]1O [Compound 3a]	57.2	potent and selective ligands	–	–
O=C(NCCCCNC(=O)[C@@H]1[C@H]2C[C@H]3c4[nH]c5ccccc5c4CCN3C[C@@H]2CC[C@@H]1O)[C@@H]1[C@H]2C[C@H]3c4[nH]c5ccccc5c4CCN3C[C@@H]2CC[C@@H]1O [Compound 3c]	12.3	potent and selective ligands	–	–
O=C(NCCCCCNC(=O)[C@@H]1[C@H]2C[C@H]3c4[nH]c5ccccc5c4CCN3C[C@@H]2CC[C@@H]1O)[C@@H]1[C@H]2C[C@H]3c4[nH]c5ccccc5c4CCN3C[C@@H]2CC[C@@H]1O [Compound 3d]	77.6	–	134 ± 38.1	282
O=C(NCCCCCCNC(=O)[C@@H]1[C@H]2C[C@H]3c4[nH]c5ccccc5c4CCN3C[C@@H]2CC[C@@H]1O)[C@@H]1[C@H]2C[C@H]3c4[nH]c5ccccc5c4CCN3C[C@@H]2CC[C@@H]1O [Compound 3e]	123.1	–	–	–
O=C(NCCCCCCCNC(=O)[C@@H]1[C@H]2C[C@H]3c4[nH]c5ccccc5c4CCN3C[C@@H]2CC[C@@H]1O)[C@@H]1[C@H]2C[C@H]3c4[nH]c5ccccc5c4CCN3C[C@@H]2CC[C@@H]1O [Compound 3f]	31.7	–	27.6 ± 4	57.5
